# Experimental data as given in IntAct's records for PubMed 35512704.
# B1: RAC-alpha serine/threonine-protein kinase (Homo sapiens), P31749 (parent)
# chain: MSDVAIVKEGWLHKRGEYIKTWRPRYFLLKNDGTFIGYKERPQDVDQREAPLNNFSVAQCQLMKTERPRPNTFIIRCLQWTTVIERTFHVETPEEREEWTTAIQTVADGLKKQEEEEMDFRSGSPSDNSGAEEMEVSLAKPKHRVTMNEFEYLKLLGKGTFGKVILVKEKATGRYYAMKILKKEVIVAKDEVAHTLTENRVLQNSRHPFLTALKYSFQTHDRLCFVMEYANGGELFFHLSRERVFSEDRARFYGAEIVSALDYLHSEKNVVYRDLKLENLMLDKDGHIKITDFGLCKEGIKDGATMKTFCGTPEYLAPEVLEDNDYGRAVDWWGLGVVMYEMMCGRLPFYNQDHEKLFELILMEEIRFPRTLGPEAKSLLSGLLKKDPKQRLGGGSEDAKEIMQHRFFAGIVWQHVYEKKLSPPFKPQVTSETDTRYFDEEFTAQMITITPPDQDDSMECVDSERRPHFPQFSYSASGTA
# partner: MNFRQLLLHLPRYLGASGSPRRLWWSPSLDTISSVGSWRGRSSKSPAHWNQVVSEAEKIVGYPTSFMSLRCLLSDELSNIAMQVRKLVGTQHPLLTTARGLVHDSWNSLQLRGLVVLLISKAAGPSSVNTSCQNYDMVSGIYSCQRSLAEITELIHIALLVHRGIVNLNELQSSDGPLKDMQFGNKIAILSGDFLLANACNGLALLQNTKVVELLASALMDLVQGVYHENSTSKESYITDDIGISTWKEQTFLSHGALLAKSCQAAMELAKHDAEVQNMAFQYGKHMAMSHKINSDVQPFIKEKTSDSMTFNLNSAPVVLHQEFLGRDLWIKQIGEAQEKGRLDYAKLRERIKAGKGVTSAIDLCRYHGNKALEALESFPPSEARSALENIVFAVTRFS
# B2: RAC-alpha serine/threonine-protein kinase (Homo sapiens), P31749 (parent)
# chain: B1 chain
# partner: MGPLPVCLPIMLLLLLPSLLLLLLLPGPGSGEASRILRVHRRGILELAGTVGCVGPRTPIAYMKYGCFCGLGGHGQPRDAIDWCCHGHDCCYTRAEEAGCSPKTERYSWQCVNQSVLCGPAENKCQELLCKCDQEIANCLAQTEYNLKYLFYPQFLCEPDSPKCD
# B3: RAC-alpha serine/threonine-protein kinase (Homo sapiens), P31749 (parent)
# chain: B1 chain
# partner: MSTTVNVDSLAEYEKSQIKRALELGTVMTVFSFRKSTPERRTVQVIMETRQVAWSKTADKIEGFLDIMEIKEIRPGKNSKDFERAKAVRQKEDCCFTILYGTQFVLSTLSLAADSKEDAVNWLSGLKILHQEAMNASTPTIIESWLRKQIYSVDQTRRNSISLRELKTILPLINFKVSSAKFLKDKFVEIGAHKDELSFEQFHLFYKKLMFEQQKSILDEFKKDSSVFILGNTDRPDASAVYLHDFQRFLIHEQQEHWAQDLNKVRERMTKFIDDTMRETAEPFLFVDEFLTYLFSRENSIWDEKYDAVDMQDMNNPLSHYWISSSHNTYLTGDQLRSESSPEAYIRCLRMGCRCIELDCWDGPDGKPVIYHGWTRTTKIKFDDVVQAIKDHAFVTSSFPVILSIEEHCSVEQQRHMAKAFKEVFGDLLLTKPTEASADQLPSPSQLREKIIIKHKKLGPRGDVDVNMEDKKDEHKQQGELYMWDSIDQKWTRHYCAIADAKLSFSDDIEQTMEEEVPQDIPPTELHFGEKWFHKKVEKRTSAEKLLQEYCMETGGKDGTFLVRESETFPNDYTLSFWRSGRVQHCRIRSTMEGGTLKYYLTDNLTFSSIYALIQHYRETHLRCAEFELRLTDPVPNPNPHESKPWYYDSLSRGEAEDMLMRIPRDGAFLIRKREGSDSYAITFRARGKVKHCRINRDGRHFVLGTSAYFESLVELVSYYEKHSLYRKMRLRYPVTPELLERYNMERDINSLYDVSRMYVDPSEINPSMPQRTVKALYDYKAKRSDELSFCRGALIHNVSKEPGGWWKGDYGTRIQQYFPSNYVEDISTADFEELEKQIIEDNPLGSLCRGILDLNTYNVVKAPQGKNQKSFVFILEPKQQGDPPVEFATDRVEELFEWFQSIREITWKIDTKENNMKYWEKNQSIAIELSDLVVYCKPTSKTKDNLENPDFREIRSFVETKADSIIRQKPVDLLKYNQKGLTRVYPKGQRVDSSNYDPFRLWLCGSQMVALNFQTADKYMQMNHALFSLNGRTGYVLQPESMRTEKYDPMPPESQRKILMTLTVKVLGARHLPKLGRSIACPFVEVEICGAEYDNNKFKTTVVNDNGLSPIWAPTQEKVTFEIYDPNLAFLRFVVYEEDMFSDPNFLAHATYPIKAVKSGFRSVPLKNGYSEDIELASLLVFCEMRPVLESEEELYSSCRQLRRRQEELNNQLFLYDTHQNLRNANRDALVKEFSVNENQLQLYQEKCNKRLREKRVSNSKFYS
# B4: RAC-alpha serine/threonine-protein kinase (Homo sapiens), P31749 (parent)
# chain: B1 chain
# partner: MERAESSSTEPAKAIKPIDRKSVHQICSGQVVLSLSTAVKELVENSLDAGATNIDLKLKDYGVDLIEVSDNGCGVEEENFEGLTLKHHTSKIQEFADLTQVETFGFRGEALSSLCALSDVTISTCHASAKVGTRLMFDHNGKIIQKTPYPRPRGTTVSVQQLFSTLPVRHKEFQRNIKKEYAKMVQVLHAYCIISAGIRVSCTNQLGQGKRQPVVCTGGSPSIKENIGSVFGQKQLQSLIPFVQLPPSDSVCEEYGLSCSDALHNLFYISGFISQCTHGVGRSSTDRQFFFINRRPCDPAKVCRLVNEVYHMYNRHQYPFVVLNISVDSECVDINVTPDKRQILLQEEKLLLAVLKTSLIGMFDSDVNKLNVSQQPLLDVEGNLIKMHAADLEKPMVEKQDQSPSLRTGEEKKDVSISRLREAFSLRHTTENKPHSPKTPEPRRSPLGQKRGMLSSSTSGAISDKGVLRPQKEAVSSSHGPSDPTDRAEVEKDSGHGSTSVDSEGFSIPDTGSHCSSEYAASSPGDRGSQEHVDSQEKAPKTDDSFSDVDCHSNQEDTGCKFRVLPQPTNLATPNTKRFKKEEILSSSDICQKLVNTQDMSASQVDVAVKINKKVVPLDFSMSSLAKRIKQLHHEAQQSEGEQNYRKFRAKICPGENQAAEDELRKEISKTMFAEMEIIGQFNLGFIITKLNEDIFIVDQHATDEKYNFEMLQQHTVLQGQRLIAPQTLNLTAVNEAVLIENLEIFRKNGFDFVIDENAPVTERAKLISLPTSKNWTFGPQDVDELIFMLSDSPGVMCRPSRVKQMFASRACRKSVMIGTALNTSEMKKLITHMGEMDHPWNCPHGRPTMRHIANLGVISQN
# B5: RAC-alpha serine/threonine-protein kinase (Homo sapiens), P31749 (parent)
# chain: B1 chain
# partner: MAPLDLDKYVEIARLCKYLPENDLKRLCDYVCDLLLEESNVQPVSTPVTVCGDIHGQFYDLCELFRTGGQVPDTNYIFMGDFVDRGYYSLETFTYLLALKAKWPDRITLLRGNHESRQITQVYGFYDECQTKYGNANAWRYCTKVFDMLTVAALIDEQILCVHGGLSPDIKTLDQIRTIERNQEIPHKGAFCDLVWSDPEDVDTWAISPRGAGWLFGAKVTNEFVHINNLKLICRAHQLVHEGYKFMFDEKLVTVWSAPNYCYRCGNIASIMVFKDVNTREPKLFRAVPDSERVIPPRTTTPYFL
# B6: RAC-alpha serine/threonine-protein kinase (Homo sapiens), P31749 (parent)
# chain: B1 chain
# partner: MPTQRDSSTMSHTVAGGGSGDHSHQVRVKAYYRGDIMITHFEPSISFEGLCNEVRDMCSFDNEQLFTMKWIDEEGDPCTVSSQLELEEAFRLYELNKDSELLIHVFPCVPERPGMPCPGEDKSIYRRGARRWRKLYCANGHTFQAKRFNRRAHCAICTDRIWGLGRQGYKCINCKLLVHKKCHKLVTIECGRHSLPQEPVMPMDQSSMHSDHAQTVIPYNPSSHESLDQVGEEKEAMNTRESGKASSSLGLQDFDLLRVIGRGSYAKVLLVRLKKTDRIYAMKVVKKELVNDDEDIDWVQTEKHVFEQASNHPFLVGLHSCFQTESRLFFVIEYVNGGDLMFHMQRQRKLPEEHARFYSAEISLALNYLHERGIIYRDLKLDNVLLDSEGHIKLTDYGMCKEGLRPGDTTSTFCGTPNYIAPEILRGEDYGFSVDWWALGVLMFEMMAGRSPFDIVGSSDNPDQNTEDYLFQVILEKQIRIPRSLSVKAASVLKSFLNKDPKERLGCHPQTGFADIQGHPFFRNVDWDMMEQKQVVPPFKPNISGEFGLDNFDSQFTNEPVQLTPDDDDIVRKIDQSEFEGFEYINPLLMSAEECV
# B7: RAC-alpha serine/threonine-protein kinase (Homo sapiens), P31749 (parent)
# chain: B1 chain
# partner: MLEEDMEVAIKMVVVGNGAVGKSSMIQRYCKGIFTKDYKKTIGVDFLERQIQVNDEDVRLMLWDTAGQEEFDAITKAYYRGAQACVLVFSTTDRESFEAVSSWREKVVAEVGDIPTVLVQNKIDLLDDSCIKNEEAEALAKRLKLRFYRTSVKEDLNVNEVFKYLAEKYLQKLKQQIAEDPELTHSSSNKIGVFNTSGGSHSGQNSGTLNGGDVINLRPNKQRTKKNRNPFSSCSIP
# B8: RAC-alpha serine/threonine-protein kinase (Homo sapiens), P31749 (parent)
# chain: B1 chain
# partner: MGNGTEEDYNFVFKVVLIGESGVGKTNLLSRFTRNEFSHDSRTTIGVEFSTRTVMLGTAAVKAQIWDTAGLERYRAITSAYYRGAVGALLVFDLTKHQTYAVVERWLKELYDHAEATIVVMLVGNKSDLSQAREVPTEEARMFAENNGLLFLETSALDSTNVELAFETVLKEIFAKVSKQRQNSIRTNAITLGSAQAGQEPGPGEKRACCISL
# B9: RAC-alpha serine/threonine-protein kinase (Homo sapiens), P31749 (parent)
# chain: B1 chain
# partner: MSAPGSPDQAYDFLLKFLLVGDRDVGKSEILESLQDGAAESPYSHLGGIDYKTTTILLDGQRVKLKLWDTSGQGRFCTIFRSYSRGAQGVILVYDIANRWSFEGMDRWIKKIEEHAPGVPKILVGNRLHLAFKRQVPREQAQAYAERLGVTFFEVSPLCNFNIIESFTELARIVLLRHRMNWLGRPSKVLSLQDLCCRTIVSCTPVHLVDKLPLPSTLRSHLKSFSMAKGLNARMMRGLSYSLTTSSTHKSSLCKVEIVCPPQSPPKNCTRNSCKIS
# B10: RAC-alpha serine/threonine-protein kinase (Homo sapiens), P31749 (parent)
# chain: B1 chain
# partner: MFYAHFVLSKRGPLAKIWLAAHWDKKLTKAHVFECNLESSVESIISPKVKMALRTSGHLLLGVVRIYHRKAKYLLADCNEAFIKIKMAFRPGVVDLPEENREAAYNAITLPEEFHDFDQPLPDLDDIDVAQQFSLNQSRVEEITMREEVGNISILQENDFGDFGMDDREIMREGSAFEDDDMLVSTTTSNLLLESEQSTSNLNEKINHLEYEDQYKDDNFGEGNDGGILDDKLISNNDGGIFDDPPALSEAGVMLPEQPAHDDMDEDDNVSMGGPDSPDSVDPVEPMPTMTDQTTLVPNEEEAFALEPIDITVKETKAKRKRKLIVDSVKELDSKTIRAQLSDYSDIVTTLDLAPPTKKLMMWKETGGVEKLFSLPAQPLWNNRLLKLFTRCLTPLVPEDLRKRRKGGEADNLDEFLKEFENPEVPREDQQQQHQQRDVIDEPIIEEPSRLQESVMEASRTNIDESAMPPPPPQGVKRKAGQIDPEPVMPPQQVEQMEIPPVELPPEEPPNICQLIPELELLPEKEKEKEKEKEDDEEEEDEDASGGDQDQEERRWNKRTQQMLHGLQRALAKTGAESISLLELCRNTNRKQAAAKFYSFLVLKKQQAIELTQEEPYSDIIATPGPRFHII
# B11: RAC-alpha serine/threonine-protein kinase (Homo sapiens), P31749 (parent)
# chain: B1 chain
# partner: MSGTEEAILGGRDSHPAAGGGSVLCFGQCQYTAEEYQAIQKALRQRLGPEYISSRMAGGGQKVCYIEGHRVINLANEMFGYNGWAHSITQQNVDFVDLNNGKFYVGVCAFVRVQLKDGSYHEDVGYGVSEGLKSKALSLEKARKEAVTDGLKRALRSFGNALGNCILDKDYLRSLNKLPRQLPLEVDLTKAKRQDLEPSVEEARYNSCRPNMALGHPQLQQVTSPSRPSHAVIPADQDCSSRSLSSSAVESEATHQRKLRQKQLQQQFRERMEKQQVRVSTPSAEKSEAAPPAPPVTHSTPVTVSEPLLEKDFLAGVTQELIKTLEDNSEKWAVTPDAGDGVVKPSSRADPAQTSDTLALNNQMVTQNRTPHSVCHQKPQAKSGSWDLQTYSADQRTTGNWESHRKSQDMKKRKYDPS
# Variants of: B1
# Conditions: with dlp1_human PDSS2, Q86YH6
row,Variant,effect of a mutation on the interaction
1,E17K,with no effect

# Variants of: B2
# Conditions: with pa2gx_human PLA2G10, O15496
row,Variant,effect of a mutation on the interaction
1,E17K,with no effect

# Variants of: B3
# Conditions: with plcg2_human PLCG2, P16885
row,Variant,effect of a mutation on the interaction
1,E17K,with no effect

# Variants of: B4
# Conditions: with pms2_human PMS2, P54278
row,Variant,effect of a mutation on the interaction
1,E17K,with no effect

# Variants of: B5
# Conditions: with ppp6_human PPP6C
row,Variant,effect of a mutation on the interaction
1,E17K,with no effect

# Variants of: B6
# Conditions: with kpci_human PRKCI
row,Variant,effect of a mutation on the interaction
1,E17K,with no effect

# Variants of: B7
# Conditions: with rab23_human RAB23, Q9ULC3
row,Variant,effect of a mutation on the interaction
1,E17K,with no effect

# Variants of: B8
# Conditions: with rab25_human RAB25, P57735
row,Variant,effect of a mutation on the interaction
1,E17K,with no effect

# Variants of: B9
# Conditions: with rb40a_human RAB40A
row,Variant,effect of a mutation on the interaction
1,E17K,with no effect

# Variants of: B10
# Conditions: with rad21_human RAD21, O60216
row,Variant,effect of a mutation on the interaction
1,E17K,with no effect

# Variants of: B11
# Conditions: with rad52_human RAD52, P43351
row,Variant,effect of a mutation on the interaction
1,E17K,with no effect
